# Laboratory results as given in patent publication US11478477B2, “Method for treating cancer by combination of FAK/ALK/ROS1 inhibitor and EGFR inhibitor” (ASCENTAGE PHARMA (SUZHOU) CO., LTD., priority 2018, dated 2022).
# Tested on: human EGFR^T790M-mutant NCI-H1975 lung cancer xenograft tumor model
# Test: Example 5: Compound 5 with AZD9291 in xenograft tumor model
smiles,measurement,value
"C=CC(=O)Nc1cc(Nc2nccc(-c3cn(C)c4ccccc34)n2)c(OC)cc1N(C)CCN(C)C [AZD9291, osimertinib]","Tumor status on Day 15 after administration: CR, mice/group",0/6
same,"Tumor status on Day 15 after administration: PR, mice/group",1/6
